Protein sequences, listed by entry. Tags and fused reporters are not part of them.
UniProt P43490, whole entry: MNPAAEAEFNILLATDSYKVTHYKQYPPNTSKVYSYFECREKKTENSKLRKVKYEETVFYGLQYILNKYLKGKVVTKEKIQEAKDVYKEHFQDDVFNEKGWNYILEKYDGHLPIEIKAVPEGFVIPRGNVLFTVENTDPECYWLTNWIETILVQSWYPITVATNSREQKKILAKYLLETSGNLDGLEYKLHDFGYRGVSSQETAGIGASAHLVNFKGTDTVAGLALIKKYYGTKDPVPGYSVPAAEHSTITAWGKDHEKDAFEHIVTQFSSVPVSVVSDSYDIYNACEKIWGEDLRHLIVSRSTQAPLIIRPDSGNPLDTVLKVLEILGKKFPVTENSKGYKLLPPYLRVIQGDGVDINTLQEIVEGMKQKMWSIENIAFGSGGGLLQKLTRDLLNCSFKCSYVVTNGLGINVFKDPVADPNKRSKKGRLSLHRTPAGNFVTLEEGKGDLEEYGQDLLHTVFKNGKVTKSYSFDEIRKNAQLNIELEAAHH

According to patent US9555039B2, “Piperidine derivatives and compositions for the inhibition of nicotinamide phosphoribosyltransferase (NAMPT)” (Forma TM, LLC., priority 2011, dated 2017):

Experiments:
[1] = target: Recombinant His-tagged NAMPT (Homo sapiens, UniProt P43490); assay: Biochemical inhibition assay: NAMPT enzymatic reaction, NMN quantified by mass spectrometry; conditions: read-out: Biochem IC50; 33 nM NAMPT, 1 μM NAM, 100 μM PRPP, 2.5 mM ATP, 30 minutes at room temperature
A2780 cells = assay: In-vitro cell proliferation assay (SRB, 72 hours); assay type: cell-based; conditions: read-out: A2780 IC50, sulforhodamine B (SRB) assay

Row | SMILES | IC50 [1] | IC50 (A2780 cells)
1 | COc1ccc(C)cc1S(=O)(=O)N1CCC(CCCCNC(=O)c2cc3cnccc3[nH]2)CC1 | 27.3 nM | 1.7 nM
2 | O=C(NCCCCC1CCN(S(=O)(=O)c2ccccc2Cl)CC1)c1cc2cnccc2[nH]1 | 21.2 nM | 7.1 nM
3 | Cc1ccc(S(=O)(=O)N2CCC(CCCCNC(=O)c3cc4cnccc4[nH]3)CC2)cc1F | 30.7 nM | 15.6 nM
4 | Cc1c(F)cccc1S(=O)(=O)N1CCC(CCCCNC(=O)c2cc3cnccc3[nH]2)CC1 | 25.5 nM | 12.9 nM
5 | COc1ccc(S(=O)(=O)N2CCC(CCCCNC(=O)c3cc4cnccc4[nH]3)CC2)cc1 | 33.8 nM | 7.1 nM
6 | N#Cc1ccc(S(=O)(=O)N2CCC(CCCCNC(=O)c3cc4cnccc4[nH]3)CC2)cc1 | 49.6 nM | 12.7 nM
7 | O=C(NCCCCC1CCN(S(=O)(=O)c2cc(F)cc(F)c2)CC1)c1cc2cnccc2[nH]1 | 22.5 nM | 6.9 nM
8 | Cc1ccc(S(=O)(=O)N2CCC(CCCCNC(=O)c3cc4cnccc4[nH]3)CC2)cc1 | 30.2 nM | 9.9 nM
9 | Cc1cc(S(=O)(=O)N2CCC(CCCCNC(=O)c3cc4cnccc4[nH]3)CC2)ccc1F | 69.6 nM | 14.7 nM
10 | COc1ccc(S(=O)(=O)N2CCC(CCCCNC(=O)c3cc4cnccc4[nH]3)CC2)cc1OC | 27.6 nM | 3.2 nM
11 | Cc1ccc(F)c(S(=O)(=O)N2CCC(CCCCNC(=O)c3cc4cnccc4[nH]3)CC2)c1 | 26.8 nM | 6.7 nM
12 | O=C(NCCCCC1CCN(S(=O)(=O)c2ccc(F)c(Cl)c2)CC1)c1cc2cnccc2[nH]1 | 59.8 nM | 68.5 nM
13 | O=C(NCCCCC1CCN(S(=O)(=O)c2cccc(F)c2)CC1)c1cc2cnccc2[nH]1 | 21.7 nM | 12.9 nM
14 | Cc1ccccc1S(=O)(=O)N1CCC(CCCCNC(=O)c2cc3cnccc3[nH]2)CC1 | 36 nM | 6.7 nM
15 | O=C(NCCCCC1CCN(S(=O)(=O)c2cccc(C(F)(F)F)c2)CC1)c1cc2cnccc2[nH]1 | 76.9 nM | 62.3 nM
16 | Cc1cc(F)ccc1S(=O)(=O)N1CCC(CCCCNC(=O)c2cc3cnccc3[nH]2)CC1 | 15.2 nM | 7.6 nM
17 | COc1cccc(S(=O)(=O)N2CCC(CCCCNC(=O)c3cc4cnccc4[nH]3)CC2)c1 | 35.3 nM | 10.7 nM
18 | CC(C)Oc1ccc(S(=O)(=O)N2CCC(CCCCNC(=O)c3cc4cnccc4[nH]3)CC2)cc1 | 19.3 nM | 1.9 nM
19 | COc1ccc(S(=O)(=O)N2CCC(CCCCNC(=O)c3cc4cnccc4[nH]3)CC2)cc1Cl | 29.3 nM | 13.7 nM
20 | COc1ccc(S(=O)(=O)N2CCC(CCCCNC(=O)c3cc4cnccc4[nH]3)CC2)cc1F | 24.8 nM | 7.5 nM
21 | O=C(NCCCCC1CCN(S(=O)(=O)c2ccccc2C(F)(F)F)CC1)c1cc2cnccc2[nH]1 | 24.5 nM | 5 nM
22 | COc1ccc(S(=O)(=O)N2CCC(CCCCNC(=O)c3cc4cnccc4[nH]3)CC2)cc1C | 21.6 nM | 7 nM
23 | O=C(NCCCCC1CCN(S(=O)(=O)c2ccccc2F)CC1)c1cc2cnccc2[nH]1 | 7.6 nM | 6.3 nM
